{"source": "paper PMC6589951", "about": "(Therapeutic Advances in Medical Oncology, 2019)", "origin": "cited, not measured here", "tested_on": "PVNS", "conditions": "28 patients with PVNS; cited from earlier work"}
{"substance": "emactuzumab: anti CSF1R antibody", "values": [{"measurement": "CR rate", "value": 7, "unit": "%"}, {"measurement": "PR rate", "value": 79, "unit": "%"}, {"measurement": "disease progression", "value": "no patient had disease progression"}, {"measurement": "prolonged stable disease", "value": 11, "unit": "%"}]}
